Test results as given in ChEMBL document CHEMBL1139480, “Urotensin-II receptor ligands. From agonist to antagonist activity” (J Med Chem, 2005).

Target: T1, Urotensin-2 receptor (Rattus norvegicus, UniProt P49684)
T1 sequence (P49684 whole entry): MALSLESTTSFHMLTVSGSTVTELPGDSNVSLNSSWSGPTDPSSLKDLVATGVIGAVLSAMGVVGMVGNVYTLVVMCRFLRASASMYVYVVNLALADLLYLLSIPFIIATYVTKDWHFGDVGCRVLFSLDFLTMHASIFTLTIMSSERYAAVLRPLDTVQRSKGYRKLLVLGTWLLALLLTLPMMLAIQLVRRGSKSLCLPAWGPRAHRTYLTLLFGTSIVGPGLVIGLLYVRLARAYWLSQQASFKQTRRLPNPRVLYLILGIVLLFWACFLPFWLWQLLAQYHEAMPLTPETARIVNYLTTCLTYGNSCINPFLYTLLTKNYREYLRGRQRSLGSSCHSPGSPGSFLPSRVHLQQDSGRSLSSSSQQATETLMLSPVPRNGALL
Experiment: Antagonist activity at rat UT receptor
Format: functional
Details: read-out: pA2 (converted)
Outline: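 Thoracic aorta from male albino Wistar rats (275–350 g), decapitated under ether anesthesia, was cut into paired strips in oxygenated Krebs–Henseleit and recorded isotonically under 5 mN load. The control strip received cumulative hU-II. The test strip received the antagonist for 30 min, then cumulative hU-II. KCl 80 mM at the end gave the maximal contraction. pK_B = log(dose ratio − 1) − log[antagonist], slope assumed −1.0, averaged over individual values. Competition was checked by Schild plot.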

- Kb: 39.8 nM (antagonist)
Compound: CC(C)[C@H](NC(=O)[C@@H]1CSSC(C)(C)[C@H](NC(=O)[C@@H](N)CC(=O)O)C(=O)N[C@@H](Cc2ccccc2)C(=O)N[C@@H](Cc2c[nH]c3ccccc23)C(=O)N[C@@H](CCCN)C(=O)N[C@@H](Cc2ccc(O)cc2)C(=O)N1)C(=O)O
